These results are taken from BindingDB's records for patent US8470837 (Takeda Pharmaceutical, 2013).

Amino acid sequences for entries named in this document (tags omitted). Chains listed by the source or under a name are the forms on record and can include a tag or linker.
UniProt Q02750, as listed by the source S218E/S222D: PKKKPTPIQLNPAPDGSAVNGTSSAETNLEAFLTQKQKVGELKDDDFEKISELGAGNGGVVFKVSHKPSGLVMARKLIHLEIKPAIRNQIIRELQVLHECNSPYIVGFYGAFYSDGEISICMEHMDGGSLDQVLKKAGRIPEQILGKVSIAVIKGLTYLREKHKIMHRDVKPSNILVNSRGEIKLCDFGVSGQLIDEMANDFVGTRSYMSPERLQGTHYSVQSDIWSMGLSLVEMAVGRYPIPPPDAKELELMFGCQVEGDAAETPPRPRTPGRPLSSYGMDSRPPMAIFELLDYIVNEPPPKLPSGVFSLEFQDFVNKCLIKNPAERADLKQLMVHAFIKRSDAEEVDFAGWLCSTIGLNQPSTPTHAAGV

The target of this test is T1, Dual specificity mitogen-activated protein kinase kinase 1 [2-31,52-393,S218E,S222D] (Homo sapiens, UniProt Q02750, S218E/S222D).
T1 construct: 2-31,52-393
The test is described as follows: Enzyme Assay. The following applies: pH 7.3; 25 °C.

The IC50 is the concentration that inhibits the measured activity by half. `Cn1c(=O)cc(Nc2ccc(I)cc2F)c2c(=O)n(CCO)cnc21` [US8470837, 2]: the IC50 entry is “in the range around 10 nM”. The value for `Cc1c(Nc2ccc(I)cc2F)c2c(=O)n(C)cnc2n(C)c1=O` [US8470837, 4] was “in the range around 10 nM”; that for `Cn1c(=O)cc(Nc2ccc(I)cc2F)c2c(=O)n(C(CO)CO)cnc21` [US8470837, 24] was “in the range around 10 nM”; that for `Cn1c(=O)c(F)c(Nc2ccc(Br)cc2F)c2c(=O)n(C[C@H](O)CO)cnc21` [US8470837, 41] was “in the range around 10 nM”.
